Calls of active or inactive are those of the source. The calls are words filed in the database; no cut-off is given here.
Molecular target: Serine/threonine-protein kinase pim-1 (Homo sapiens, UniProt P11309)
Test: Inhibition of Pim1 (unknown origin) using STK3 as substrate preincubated for 30 mins followed by substrate and ATP addition at > 5000 nM after 45 mins by HTRF assay

By UniProt entry, the sequences of proteins in these tests, tags left out.
UniProt P11309, whole entry, looked up: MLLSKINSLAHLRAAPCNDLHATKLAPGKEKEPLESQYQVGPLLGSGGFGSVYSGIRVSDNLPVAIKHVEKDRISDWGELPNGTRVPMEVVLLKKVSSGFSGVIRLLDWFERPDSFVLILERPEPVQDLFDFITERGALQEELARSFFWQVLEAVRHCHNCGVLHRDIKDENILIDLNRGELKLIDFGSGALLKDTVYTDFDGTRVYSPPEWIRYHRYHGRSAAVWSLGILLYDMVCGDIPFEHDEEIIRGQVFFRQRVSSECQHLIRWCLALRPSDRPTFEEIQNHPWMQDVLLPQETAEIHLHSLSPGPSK

Row | inhibition | Compound
1 | inactive | c1ccc2cc(-c3cnn4ccc(NC5CCCCC5)nc34)ccc2c1
2 | inactive | NCCNc1ccn2ncc(-c3cccc(-c4ncc[nH]4)c3)c2n1
